Results from ChEMBL document CHEMBL1149170, “Khellinone derivatives as blockers of the voltage-gated potassium channel Kv1.3: synthesis and immunosuppressive activity” (J Med Chem, 2004).

Sequences of proteins named here, by UniProt entry; tags and fusion partners are left off.
UniProt P22001, whole entry: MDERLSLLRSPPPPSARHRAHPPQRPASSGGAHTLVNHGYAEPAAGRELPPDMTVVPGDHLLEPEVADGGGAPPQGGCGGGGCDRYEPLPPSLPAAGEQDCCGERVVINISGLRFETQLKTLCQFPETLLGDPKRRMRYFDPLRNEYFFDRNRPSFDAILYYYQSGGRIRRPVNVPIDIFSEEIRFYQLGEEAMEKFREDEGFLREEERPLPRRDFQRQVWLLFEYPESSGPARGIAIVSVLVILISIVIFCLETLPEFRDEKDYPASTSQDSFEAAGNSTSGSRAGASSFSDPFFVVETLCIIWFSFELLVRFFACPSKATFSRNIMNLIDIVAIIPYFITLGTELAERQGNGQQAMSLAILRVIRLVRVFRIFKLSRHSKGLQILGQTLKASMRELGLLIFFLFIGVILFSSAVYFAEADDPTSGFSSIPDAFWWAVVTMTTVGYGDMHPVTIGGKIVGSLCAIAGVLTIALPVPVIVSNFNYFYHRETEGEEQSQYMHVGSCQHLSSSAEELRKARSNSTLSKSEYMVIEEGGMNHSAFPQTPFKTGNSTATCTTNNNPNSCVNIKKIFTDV

Molecular target: Potassium voltage-gated channel subfamily A member 3 (Homo sapiens, UniProt P22001)
Test: Dissociation constant for the blockage of voltage-gated potassium channel subunit Kv1.3 in human lymphocytes
Type: cell-based

Kd: 1500 nM
Compound: COc1c(O)c(C(=O)CCc2ccccc2)c(OC)c2c1OCC2
